The record followed here is US20080076183A1, “Polysaccharide-peptide conjugates for use as thrombin substrates” (Dade Behring Marburg GmbH, priority 2006, published 2008).

In this data set the target is thrombin (Homo sapiens, UniProt P00734). Briefly: Kinetic properties of thrombin substrates (Km, Vmax, Kcat, Kcat/Km). As to conditions: for Km: Michaelis constant, substrate affinity to thrombin; for Vmax: maximum reaction rate; for Kcat: turnover number.

On to Dextran-D-CHG-Ala-Arg-pNA, for which the Km was 600 µM, the Vmax turned out to be 57 U and the Kcat is 167 s⁻¹.
For Dextran-D-CHG-Gly-Arg-pNA, the Km was determined as 600 µM, the Vmax amounted to 60 U and the Kcat was 176 s⁻¹.
For Dextran-β-Ala-Gly-Arg-pNA the same measures were 1000 to 1400 µM, 19.5 U and 21 s⁻¹.
